## Curated experimental data: vapor pressure values

Data: OPERA 2.9 data sets, kmansouri/OPERA on GitHub.

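OPERA's authors assembled the values from existing databases and did not measure them anew. A listed value is a point estimate from one report or more. Conditions of the individual experiments are not part of the data. Where a salt, mixture or single isomer is drawn, the source does not say that exactly this form was tested. Some entries may be limits or estimates that an upstream database listed as plain numbers.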

Vapor pressure is log10 of mmHg; the set covers 15 to 30 °C, mostly 20 to 25 °C.
Cells with "–" have no entry in this list.

structure (SMILES) | name | vapor pressure (log10 mmHg)
O=C(CS)OCC(COC(=O)CS)(COC(=O)CS)COC(=O)CS | – | -5.132
CCCCC(CC)COC(=O)c1ccccc1O (stereo not drawn) | 2-Ethylhexyl salicylate | -3.64
Clc1cc(Cl)c2c(Cl)ccc(Cl)c2c1 | – | -3.804
FC(F)(F)COc1cccnc1Cl | 2-Chloro-3-(2,2,2-trifluoroethoxy)pyridine | -1.599
C=CC(=O)NC(C)(C)CC(C)(C)C | N-tert-Octylacrylamide | -3.185
Clc1cc(Cl)c(-c2cc(Cl)ccc2Cl)c(Cl)c1 | 2,2',4,5',6-Pentachlorobiphenyl | -4.155
CCOC=C(C(=O)OCC)C(=O)OCC | Diethyl ethoxymethylenemalonate | -3.367
CC(C)(C)c1cc(CCC(=O)NCCCCCCNC(=O)CCc2cc(C(C)(C)C)c(O)c(C(C)(C)C)c2)cc(C(C)(C)C)c1O | Antioxidant 1098 | -13
CC(C)(C#N)CC1=CCC2CC1C2(C)C (stereo not drawn) | – | -1.593
CC(C#N)N=CO (stereo not drawn) | (1-Cyanoethyl)methanimidic acid | -1.763
CCC=C(C)C(O)CCCCC (stereo not drawn) | 4-Methyl-3-decen-5-ol | -2.084
CCCCC(CC)COC(=O)CCc1cc(C(C)(C)C)c(O)c(C(C)(C)C)c1 (stereo not drawn) | 2-Ethylhexyl 3-(3,5-di-tert-butyl-4-hydroxyphenyl)propionate | -6.397
CCCCCCCCCCCCCCCCCCN(C)C | N,N-Dimethyl-1-octadecanamine | -5.023
CC(=O)N[C@@H](CS)C(=O)O | N-Acetyl-L-cysteine | -7.777
CC1(C)C(=CC=C2C(Cl)=C(C=CC3=[N+](CCCCS(=O)(=O)[O-])c4ccc5ccccc5c4C3(C)C)c3ccccc32)N(CCCCS(=O)(=O)O)c2ccc3ccccc3c21 | – | -8.201
CC(=O)CSc1ccc(Cl)cc1 | (4-Chlorophenylthio)acetone | -2.937
COCC(F)(F)C(F)(F)C(F)(F)C(F)F | 1,1,2,2,3,3,4,4-Octafluoro-5-methoxypentane | 1.045
COc1cc(Cl)c(OC)cc1N | 2,5-Dimethoxy-4-chloroaniline | -4.563
CCCCCCOC(=O)CCCCC | Hexyl hexanoate | -1.608
Clc1ccc(-c2cc(Cl)cc(Cl)c2)cc1 | 3,4',5-Trichlorobiphenyl | -4.025
C1CCCCCCCCCCC1 | Cyclododecane | -1.28
Brc1ccc(Oc2cccc(Br)c2)cc1 | 1-Bromo-3-(4-bromophenoxy)benzene | -4.073
O=C(Nc1ccnc(=O)[nH]1)c1ccccc1 | N4-Benzoylcytosine | -6.569
CN(C)C[C@H](O)[C@@H](O)[C@H](O)[C@H](O)CO (stereo in doubt) | N,N-Dimethyl-D-glucamine | -5.272
CC1C(C)(C)C2CCc3cncnc3C2C1(C)C (stereo not drawn) | – | -3.663
C=COCCCCCCCCCCCC | Dodecane, 1-(ethenyloxy)- | -2.593
c1ccc(N(CC2CO2)CC2CO2)cc1 (stereo not drawn) | 2-Oxiranemethanamine, N-(2-oxiranylmethyl)-N-phenyl- | -3.894
CC=CC=C1C(C)=CC(=O)CC1(C)C | Tabanone | -1.153
COC(=O)c1ccc(C#N)cc1[N+](=O)[O-] | Methyl 4-cyano-2-nitrobenzoate | -5.084
C=CC1(C)CCC(C(C)(C)O)O1 (stereo not drawn) | – | 0.136
CC(CO)CC(C)c1ccccc1 (stereo not drawn) | 2-Methyl-4-phenylpentanol | -2.643

A selection of 4 entries from above:

structure (SMILES)	name	vapor pressure (log10 mmHg)
CC(=O)N[C@@H](CS)C(=O)O	N-Acetyl-L-cysteine	-7.777
CN(C)C[C@H](O)[C@@H](O)[C@H](O)[C@H](O)CO (stereo in doubt)	N,N-Dimethyl-D-glucamine	-5.272
Clc1ccc(-c2cc(Cl)cc(Cl)c2)cc1	3,4',5-Trichlorobiphenyl	-4.025
CCCCC(CC)COC(=O)c1ccccc1O (stereo not drawn)	2-Ethylhexyl salicylate	-3.64